Data on 57 molecules can be found in PubChem BioAssay AID624038 (The Scripps Research Institute Molecular Screening Center, 2012).

Sequences of proteins named here, by UniProt entry; tags and fusion partners are left off.
UniProt P08912, whole entry, looked up: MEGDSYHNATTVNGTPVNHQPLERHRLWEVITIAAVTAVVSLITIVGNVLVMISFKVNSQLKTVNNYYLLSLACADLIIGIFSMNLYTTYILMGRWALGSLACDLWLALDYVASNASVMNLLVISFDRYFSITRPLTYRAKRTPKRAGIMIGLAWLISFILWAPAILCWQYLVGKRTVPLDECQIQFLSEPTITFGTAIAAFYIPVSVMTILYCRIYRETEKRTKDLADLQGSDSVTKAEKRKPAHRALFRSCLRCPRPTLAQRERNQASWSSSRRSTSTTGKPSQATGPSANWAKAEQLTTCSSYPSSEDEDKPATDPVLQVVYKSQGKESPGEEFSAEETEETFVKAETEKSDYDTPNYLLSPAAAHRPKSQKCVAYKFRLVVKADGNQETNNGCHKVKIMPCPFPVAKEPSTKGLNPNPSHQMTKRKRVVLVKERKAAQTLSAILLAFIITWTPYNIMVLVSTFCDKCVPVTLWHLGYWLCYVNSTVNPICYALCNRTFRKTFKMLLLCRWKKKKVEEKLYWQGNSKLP

The list shows a part of the results, in another mix than the full data. Calls of active or inactive are those of the source.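 The calls were made as follows: active = activation above the run cutoff, the mean activation of all test compounds plus 3 SD (cut at about 18% in these data); inactive = the rest.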

The experiment addresses Muscarinic acetylcholine receptor M5 (Homo sapiens) (UniProt P08912). As to the kind of experiment: CHRM5 PAMs potentiating acetylcholine calcium signal – CHO-K1 cells, Fluo-8 calcium fluorescence, primary screen (AID 624038). To be noted: CHO-K1 hM5, Fluo-8 calcium, ACh EC20 PAM; at 3 µM; stronger effect = higher value; 0% = ACh EC20, 100% = ACh EC100.
In the case of `COC(=O)c1cc2c(s1)N=C(c1ccccc1)N(C)P2(=O)N1CCOCC1` (configuration not stated), the activation is inactive: 1.91%.
As to `CC(=O)NC(SC(=S)N(CC(C)C)CC(C)C)C(Cl)(Cl)Cl` (configuration not stated), the activation is inactive: 1.36%.
Take `Cc1ccc(OP(=O)(Nc2ccccn2)Oc2ccc(C)cc2)cc1`: the activation was inactive: -3.42%.
With `CC1C(=O)OC2CCN3CC4OC4(COC(=O)C(C)(O)C1(C)O)C23` (configuration not stated), the activation is inactive: 7.8%.
Consider `O=P1(N(CCCl)CCCl)OCCC2CCCCN21` (configuration not stated), for which the activation was inactive: 0.49%.
With `c1ccc(-c2nn[nH]n2)c(-c2nn[nH]n2)c1` the figure was inactive: 11.2%.
In the case of `Cc1ccc(NP(=O)(Oc2cccc(C)c2)Oc2cccc(C)c2)nc1`, the activation is inactive: 9.35%.
`C=C1C(=O)OC2CCN3CC=C(COC(=O)C(C)(O)C4(CO4)C1C)C23` (configuration not stated): the activation is inactive: -1.89%.
On to `O=C(NC1CCS(=O)(=O)C1)NP(=S)(Oc1ccccc1)Oc1ccccc1` (configuration not stated), for which the activation was inactive: 0.4%.
`CCNC(=S)/N=C(\N)N[N+](=O)[O-]`: the activation is inactive: 0.55%.
Turning to `Nc1cccc2ccc([As](=O)(O)O)cc12`, the activation was inactive: -0.28%.
Consider `CCN(N=Nc1nonc1N)c1nonc1N`, for which the activation is inactive: -2.02%.
Consider `CCOP(=O)(Nc1ccccc1)OCC`, for which the activation is inactive: 8.68%.
As for `Cc1cc(SC(NC(=O)c2ccc(F)cc2)C(Cl)(Cl)Cl)ncn1` (configuration not stated), the activation was inactive: -3.64%.
With `CN(C(=O)Cc1ccc(Cl)c(Cl)c1)[C@H]1CCCC[C@@H]1N1CCCC1`, the activation was inactive: -5.33%.
Turning to `Cc1ccc(NP(=O)(Oc2ccccc2F)Oc2ccccc2F)nc1`, the activation is inactive: -17.1%.
On to `CN(C)P(=O)(N(C)C)n1c(Nc2ccccc2)nnc1-c1ccccc1`, for which the activation was inactive: 0.1%.
In the case of `O=P(Nc1nc2ccc(Cl)cc2s1)(c1ccccc1)c1ccccc1`, the activation was inactive: -19.4%.
Turning to `O=C(O)c1ccccc1[As](=O)(O)O`, the activation is inactive: 4.13%.
As for `CC(=O)Nc1ccc([As](=O)(O)O)cc1`, the activation is inactive: -3.16%.
In the case of `CC(=O)O[C@]1(C)C(=O)OC/C2=C/CN(C)CCC(OC(=O)[C@@](O)(C(C)O)C[C@H]1C)C2=O` (some centres not stated), the activation was inactive: -2.24%.
As for `CCCC1OP(N)(=O)OCC1CC` (configuration not stated), the activation was inactive: 1.21%.
With `O=[N+]([O-])C1C(O)C(O)C([N+](=O)[O-])C(O)C1O` (configuration not stated) the figure was inactive: -2.94%; with `Oc1ccccc1CNc1ccccn1`, inactive: 3.78%; with `O=C(NC(Sc1ccncn1)C(Cl)(Cl)Cl)c1ccccc1` (configuration not stated), inactive: -1.75%.
With `CC(C)CC(=O)NC(Sc1ccc(Cl)cc1)C(Cl)(Cl)Cl` (configuration not stated) the figure was inactive: -2.45%; with `Nc1cc(N)c2nonc2c1[N+](=O)[O-]`, inactive: -10.6%; with `Clc1ccc(Cl)c(NC2=NCC(CBr)S2)c1` (configuration not stated), inactive: -1.49%.
On to `CN1CCCC(OC(=O)C(c2ccccc2)c2ccccc2)C1` (configuration not stated), for which the activation is inactive: -41.4%.
With `CC(C)[C@H]1C(=O)O[C@@H]2CCN3CC=C(COC(=O)[C@](C)(O)[C@]1(C)O)[C@H]23`, the activation is inactive: -3.95%.
For `COc1ccccc1OP(=O)(Nc1ccc(C)cn1)Oc1ccccc1OC`, the activation was inactive: -6.51%.
For `Cc1ccc(OP(=O)(Nc2nccs2)Oc2ccc(C)cc2)cc1`, the activation was inactive: 4.69%.
In the case of `CN(C(=O)Cc1ccc(Cl)c(Cl)c1)[C@H]1CCCC[C@H]1N1CCCC1`, the activation was inactive: -8.72%.
As for `Cc1ccc(N/C(=N/P(=O)(N2CCOCC2)N2CCOCC2)N2CCOCC2)cc1`, the activation was inactive: -5.01%.
With `NC(=O)c1cc([N+](=O)[O-])cc([N+](=O)[O-])c1N`, the activation was inactive: 11%.
`c1cc(-c2nn[nH]n2)ccc1-c1nn[nH]n1`: the activation is inactive: 2.52%.
Regarding `CC1CCN(C(=O)Oc2c(Cl)cc(Cl)c3cccnc23)CC1`, the activation was inactive: -0.84%.
Take `CC(C)=N/N=C(\N)N[N+](=O)[O-]`: the activation was inactive: 6.06%.
As for `CC(C)c1nc(Nc2ccccc2)n(P(=O)(N(C)C)N(C)C)n1`, the activation was inactive: -1.26%.
Consider `CN(C)C(=O)OCCc1n(C)cc[n+]1C`, for which the activation is inactive: -6.77%.
In the case of `CCN(/C(=N/P(=O)(N1CCOCC1)N1CCOCC1)N1CCOCC1)c1ccc(OC)cc1` it was inactive: 0.31%.
Regarding `Nc1ccc([As](=O)(O)c2ccc(N)cc2)cc1`, the activation was inactive: 2.42%.
With `C[N+]1=C2C=CC=CC=C2SC12C([N+](=O)[O-])=CC([N+](=O)[O-])=C[C-]2[N+](=O)[O-]` (configuration not stated) the figure was inactive: -6.71%.
In the case of `Cc1ccc(NP(=O)(Oc2ccccc2)Oc2ccccc2)nc1`, the activation was inactive: 7.29%.
On to `O=[N+]([O-])c1cc([N+](=O)[O-])c(CCNc2ccccc2)c([N+](=O)[O-])c1`, for which the activation was inactive: 0.09%.
Turning to `CCc1nc2c(n1)c1c(non1O)c1c2no[n+]1[O-]`, the activation was inactive: -6.54%.
As to `CC(=O)N1C2C3N(C(C)=O)C1C1N(C(C)=O)C(C(N1C(C)=O)N3C(C)=O)N2C(C)=O`, the activation is inactive: 5.41%.
As to `O=[N+]([O-])c1cccc2n[nH]nc12`, the activation is inactive: -8.32%.
Take `COc1ccc(C2=NCC(CBr)S2)cc1` (configuration not stated): the activation was inactive: 1.73%.
In the case of `C/C=C1/C[C@@H](C)[C@](O)(CO)C(=O)OCC2=CCN3CC[C@@H](OC1=O)[C@@H]23` it was inactive: 4.77%; in that of `O=C(O)CNc1ccc([As](=O)(O)O)cc1`, inactive: -4.34%; in that of `O=[N+]([O-])c1cccc(NC2=NCC(CBr)S2)c1` (configuration not stated), inactive: -3.33%.
In the case of `COC(=O)C1(C)COP(=O)(Nc2ccccc2)OC1` (configuration not stated) it was inactive: -0.26%; in that of `O=[N+]([O-])c1ncn(CCn2ncnc2[N+](=O)[O-])n1`, inactive: -0.81%.
In the case of `CC(C)(C)C(=O)NC(Sc1ccncn1)C(Cl)(Cl)Cl` (configuration not stated) it was inactive: -8.35%; in that of `O=C(Nc1cc([As](=O)(O)O)ccc1O)c1ccccc1`, inactive: 5.11%; in that of `O=P1(N(CCCl)CCCl)OCCCS1` (configuration not stated), active: 22.2%.
